pIC50: −log10 of the molar value.
biological target: CCR5 (Homo sapiens, UniProt P51681); assay: CCR5-mediated cell-cell fusion (CCF) assay, single agents; assay type: cell-based; settings: read-out: IC50 ± SD, inhibitor alone

The chains behind the UniProt entries cited, without tags or fusion partners.
UniProt P51681, whole entry: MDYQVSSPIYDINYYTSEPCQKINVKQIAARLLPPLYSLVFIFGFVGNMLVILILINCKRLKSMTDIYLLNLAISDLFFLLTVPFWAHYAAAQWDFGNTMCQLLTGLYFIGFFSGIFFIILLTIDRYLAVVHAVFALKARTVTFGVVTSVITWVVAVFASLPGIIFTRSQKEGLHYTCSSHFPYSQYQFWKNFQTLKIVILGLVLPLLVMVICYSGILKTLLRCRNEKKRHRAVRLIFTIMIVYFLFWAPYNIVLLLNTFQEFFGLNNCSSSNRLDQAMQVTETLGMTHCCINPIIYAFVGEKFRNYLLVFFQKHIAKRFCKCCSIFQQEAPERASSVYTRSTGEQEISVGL

First: CC(=O)N1CCC(C(=O)N(CCCN2CC3CN(C(=O)c4c(C)cccc4C)CC3C2)c2ccc(C)c(Cl)c2)CC1 (stereo not drawn)
Second: Cc1cccc(C)c1C(=O)N1CC2CN(CC[C@H](NC(=O)C3CCCC3)c3ccccc3)CC2C1 (stereo partly drawn)
The pIC50 of the first is 1.00 log units higher: 9.40 for the first, 8.40 for the second. The first is the more potent here.

CCCC[C@H]1CN(CC2CCOCC2)C(=O)OC12CCN(C1(C)CCN(C(=O)c3c(C)ncnc3C)CC1)CC2 was tested, and the pIC50 was 9.00.

From patent US20080299132A1, “Synergistic compositions for treating HIV-1” (Roche Palo Alto LLC, priority 2006, published 2008)
